{
  "source": "patent US20140241984A1",
  "key": {"Syn-F2 [1]": {"target": "Syn-F2", "test": "inhibition ELISA: soluble fibrils titrated against 10 ng/ml Syn-F2, binding to coated α-synuclein fibrils read"}, "Syn-O1 [2]": {"target": "Syn-O1", "test": "inhibition ELISA: soluble fibrils titrated against 10 ng/ml Syn-O1, binding to coated α-synuclein fibrils read"}, "Syn-O2 [3]": {"target": "Syn-O2", "test": "inhibition ELISA: soluble fibrils titrated against 10 ng/ml Syn-O2, binding to coated α-synuclein fibrils read"}, "Syn-O3 [4]": {"target": "Syn-O3", "test": "inhibition ELISA: soluble fibrils titrated against 10 ng/ml Syn-O3, binding to coated α-synuclein fibrils read"}, "Syn-O4 [5]": {"target": "Syn-O4", "test": "inhibition ELISA: soluble fibrils titrated against 10 ng/ml Syn-O4, binding to coated α-synuclein fibrils read"}, "Syn-F1 [6]": {"target": "Syn-F1", "test": "inhibition ELISA: soluble fibrils titrated against 10 ng/ml Syn-F1, binding to coated α-synuclein fibrils read; soluble fibrils as inhibitor, not monomers"}, "[7]": {"target": "Syn-1 (Mouse anti-α-synuclein; BD Bioscience)", "test": "inhibition ELISA: soluble monomers titrated against 10 ng/ml Syn-1, binding to coated α-synuclein fibrils read"}, "Syn-F1 [8]": {"target": "Syn-F1", "test": "inhibition ELISA: soluble monomers titrated against 10 ng/ml Syn-F1, binding to coated α-synuclein fibrils read"}, "Syn-F2 [9]": {"target": "Syn-F2", "test": "inhibition ELISA: soluble monomers titrated against 10 ng/ml Syn-F2, binding to coated α-synuclein fibrils read"}, "Syn-O1 [10]": {"target": "Syn-O1", "test": "inhibition ELISA: soluble monomers titrated against 10 ng/ml Syn-O1, binding to coated α-synuclein fibrils read"}, "Syn-O2 [11]": {"target": "Syn-O2", "test": "inhibition ELISA: soluble monomers titrated against 10 ng/ml Syn-O2, binding to coated α-synuclein fibrils read"}, "Syn-O3 [12]": {"target": "Syn-O3", "test": "inhibition ELISA: soluble monomers titrated against 10 ng/ml Syn-O3, binding to coated α-synuclein fibrils read"}, "Syn-O4 [13]": {"target": "Syn-O4", "test": "inhibition ELISA: soluble monomers titrated against 10 ng/ml Syn-O4, binding to coated α-synuclein fibrils read"}},
  "data": [
    {"substance": "α-synuclein fibrils (from UniProt P37840 1-140) (other; other documents disagree on this pair)", "values": [
      {"measurement": "IC50", "setting": "Syn-F2 [1]", "result": 1.18, "unit": "nM"},
      {"measurement": "IC50", "setting": "Syn-O1 [2]", "result": 0.37, "unit": "nM"},
      {"measurement": "IC50", "setting": "Syn-O2 [3]", "result": 0.12, "unit": "nM"},
      {"measurement": "IC50", "setting": "Syn-O3 [4]", "result": 0.47, "unit": "nM"},
      {"measurement": "IC50", "setting": "Syn-O4 [5]", "result": 0.52, "unit": "nM"},
      {"measurement": "IC50", "setting": "Syn-F1 [6]", "result": 0.12, "unit": "nM"}
    ]},
    {"substance": "α-synuclein monomers (from UniProt P37840 1-140)", "values": [
      {"measurement": "IC50", "setting": "[7]", "result": 1, "unit": "nM"}
    ]},
    {"substance": "α-synuclein monomers (from UniProt P37840 1-140) (other; other documents disagree on this pair)", "values": [
      {"measurement": "IC50", "setting": "Syn-F1 [8]", "result": 2080, "unit": "nM"},
      {"measurement": "IC50", "setting": "Syn-F2 [9]", "result": 3710, "unit": "nM"},
      {"measurement": "IC50", "setting": "Syn-O1 [10]", "result": 4790, "unit": "nM"},
      {"measurement": "IC50", "setting": "Syn-O2 [11]", "result": 3280, "unit": "nM"},
      {"measurement": "IC50", "setting": "Syn-O3 [12]", "result": 5330, "unit": "nM"},
      {"measurement": "IC50", "setting": "Syn-O4 [13]", "result": 3600, "unit": "nM"}
    ]}
  ]
}
